The numbers were not newly measured in US9983196B2, “Compositions and methods for optimizing drug hydrophobicity and drug delivery to cells” (Bioelastics, Inc., priority 2009, dated 2018), which cites them from elsewhere.

The conditions of data set [1]: guest residue χ in poly[fχ(GχGVP),fv(GVGVP)], extrapolated to fχ=1; some cells marked (Tt); cited from earlier work.
The conditions of data set [2]: cited from earlier work.

Regarding Ala [A: Ala], in data set [1], the Tt was 50 °C. Besides, the “ΔG°HA(GχGVP)” value in data set [2] (DSC, reference GGGVP = 0) was −0.75 kcal/mol-pentamer.
For the substance Arg [R: Arg], the Tt in data set [1] is 60 (Tt) ° C. In addition, in data set [2] (Tt used to obtain value from experimental sigmoid curve of Tt versus ΔG°HA), the “ΔG°HA(GχGVP) (from graph)” value is “+0.80 (from graph) kcal/mol-pentamer”.
